Measured values reported in paper PMC10709440, “High-throughput ligand profile characterization in novel cell lines expressing seven heterologous insect olfactory receptors for the detection of volatile plant biomarkers” (Scientific Reports, 2023).

Assays:
OR71a = system: OR71a; design: method as in earlier work; conditions: DoOR database value; ref DoOR; cited from earlier work
Drosophila OR47a = molecular target: T1, Drosophila OR47a (Drosophila melanogaster, UniProt P81921); assay: Calcium ion fluorescence (GCaMP6) assay, OR47a stable HEK293 cell line; type: cell-based; conditions: for Average response: OR47a cell line, mean of biological replicates; for DF norm AVERAGE OR47a: normalized fluorescence change, values below 0.05 threshold given as 0
T1 construct: expressed in transfected cells
T1 sequence (P81921 1-385): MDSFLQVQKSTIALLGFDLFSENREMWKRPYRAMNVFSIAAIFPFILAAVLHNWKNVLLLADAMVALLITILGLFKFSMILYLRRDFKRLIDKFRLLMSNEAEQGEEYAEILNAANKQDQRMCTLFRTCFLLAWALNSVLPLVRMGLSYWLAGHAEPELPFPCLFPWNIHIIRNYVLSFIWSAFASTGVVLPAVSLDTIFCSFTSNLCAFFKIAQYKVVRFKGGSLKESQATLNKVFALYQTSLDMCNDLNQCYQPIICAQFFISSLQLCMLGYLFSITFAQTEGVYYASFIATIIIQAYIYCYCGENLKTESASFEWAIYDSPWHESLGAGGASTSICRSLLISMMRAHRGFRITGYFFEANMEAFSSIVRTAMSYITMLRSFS
T1 sequence (Q9VNB5 1-486 partner): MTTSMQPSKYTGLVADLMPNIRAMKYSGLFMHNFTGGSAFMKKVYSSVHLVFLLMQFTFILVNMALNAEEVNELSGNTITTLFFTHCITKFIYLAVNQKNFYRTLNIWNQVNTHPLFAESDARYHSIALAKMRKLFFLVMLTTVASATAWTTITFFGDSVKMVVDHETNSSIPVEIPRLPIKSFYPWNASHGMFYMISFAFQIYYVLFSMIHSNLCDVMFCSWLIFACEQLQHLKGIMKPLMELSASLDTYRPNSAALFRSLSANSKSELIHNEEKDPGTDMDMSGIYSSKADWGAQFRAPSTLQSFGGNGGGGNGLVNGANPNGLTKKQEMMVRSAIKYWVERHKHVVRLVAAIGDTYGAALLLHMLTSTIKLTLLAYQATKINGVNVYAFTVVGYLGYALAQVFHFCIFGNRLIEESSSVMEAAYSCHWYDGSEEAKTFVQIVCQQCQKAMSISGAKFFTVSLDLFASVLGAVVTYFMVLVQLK
Method: (§1) These VUAA1 normalized ∆F values were used to compare the different receptors and ligands.
(§2) The concentration-dependent effect of the reference ligands on their cognate cell lines was examined in more detail. Twelve different ligand concentrations were measured on each cell line in an overall 0.01 μM to 100 μM concentration range with 5 repetitions with three technical replicates each time.
(§3) Twelve thousand to 18,000 cells were plated into each well of a black wall, transparent bottom 384-well microplate (Greiner) 48 h or 72 h before the measurements and were simultaneously treated with 1 μg/mL doxycycline. […] The plate has 24 columns, thus we could record responses in up to eight different cell lines in each plate. On the day of the experiment, the growth medium was replaced with 20 µL assay buffer/well (140 mM NaCl, 5 mM KCl, 2 mM CaCl2, 1 mM MgCl2, 5 mM HEPES-Na, 20 mM glucose, pH 7.3, 340 mOsm). […] Baseline fluorescence (F0) was recorded for 5 s, after which 7 µL VOC buffer (140 mM NaCl, 5 mM KCl, 2 mM CaCl2, 1 mM MgCl2, 5 mM HEPES-Na, 31 mM glucose, 0.1% DMSO, pH 7.3, 340 mOsm) was injected into each well in one row and the fluorescence response was recorded for an additional 30 s, at a rate of one read/sec. VOC solutions (VOC buffer with 4× concentration of the final measured VOC concentration, 9 µL/well was injected) were measured on the same wells in a second round with the same protocol. Each individual concentration of a specific VOC sample was recorded in three wells for the same cell line on the same microplate. The raw data were exported in xls file format, F0 and FMAX values, and the fluorescence intensity changes (∆F) were calculated in Excel (Microsoft) (Supplementary file Data summary.xlsx) using the following equation: ΔF=FMAX-F0/F0 (see also Fig. 1C). On each plate, we recorded the response of each cell line to 50 µM VUAA1. The average of these ∆F values of each cell line were used to calculate the VUAA1-normalized values for the rest of the plate, by dividing VOC response ∆F values by the average VUAA1 response ∆F value of the corresponding OR cell line. Each VOC-OR combination was measured three times as technical replicates. […] The average of these replicates were used as one ∆F and VUAA1-normalized ∆F in the following analysis.
In the next rows we tested the reference VOCs (or other VOCs known to activate the corresponding cell lines), in order to test if all cell lines are responsive. The remaining rows were used to test VOCs with unknown effect.
(§4) The recorded FMAX, F0, ∆F, VUAA1-normalized ∆F values, as well as the OR name, the name of the tested sample, and the final concentration for each well were copied into supplementary file Data summary.xlsx, that was used to summarize all the plates recorded. Here, the averages of the measurements were calculated for each receptor-VOC-concentration combination.

Drosophila OR49b = molecular target: T2, Drosophila OR49b (Drosophila melanogaster, UniProt Q9V6H2); assay: cell-based
T2 construct: expressed in transfected cells
T2 sequence (Q9V6H2 1-375): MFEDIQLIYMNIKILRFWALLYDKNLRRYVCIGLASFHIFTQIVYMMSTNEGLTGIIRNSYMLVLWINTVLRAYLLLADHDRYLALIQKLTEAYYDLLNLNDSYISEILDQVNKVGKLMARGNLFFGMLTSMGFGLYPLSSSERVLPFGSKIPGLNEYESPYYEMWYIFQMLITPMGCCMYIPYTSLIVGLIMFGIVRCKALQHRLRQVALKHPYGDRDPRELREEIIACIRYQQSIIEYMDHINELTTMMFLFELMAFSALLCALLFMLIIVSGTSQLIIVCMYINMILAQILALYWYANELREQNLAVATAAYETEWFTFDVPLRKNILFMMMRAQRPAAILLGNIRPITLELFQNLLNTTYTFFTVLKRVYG
T2 sequence (Q9VNB5 1-486 partner): T1 sequence (Q9VNB5 1-486 partner)
Method: as §1, §2, §3
In the next rows we tested the reference VOCs (or other VOCs known to activate the corresponding cell lines), in order to test if all cell lines are responsive. […]
as §4

OR10a = system: OR10a; design: method as in earlier work; conditions: DoOR database value; ref DoOR; cited from earlier work
[1] = HEK293, read-out: OR47a response (VUAA1-normalized response)
[2] = HEK293, read-out: OR49b response (VUAA1-normalized response)

CC(=O)CCC=C(C)C [6-methyl-5-hepten-2-one]
OR71a DoOR response (OR71a): 0.002 | activation at 1 µM (Drosophila OR47a; [1]): 0% | activation at 10 µM (Drosophila OR47a; [1]): 0% | activation at 100 µM (Drosophila OR47a; [1]): 6% | Average response (Drosophila OR47a; odorant cc. 1 µM): 0.00 | Average response (Drosophila OR47a; odorant cc. 10 µM): 0.00 | Average response (Drosophila OR47a; odorant cc. 100 µM): 0.06 | DF norm AVERAGE OR47a (Drosophila OR47a; concentration 1): 0 | DF norm AVERAGE OR47a (Drosophila OR47a; concentration 10): 0 | DF norm AVERAGE OR47a (Drosophila OR47a; concentration 100): 0.06288 | DF norm AVERAGE OR49b (Drosophila OR49b): 0 | activation at 1 µM (Drosophila OR49b; [2]): 0% | activation at 10 µM (Drosophila OR49b; [2]): 0% | activation at 100 µM (Drosophila OR49b; [2]): 0% | OR10a DoOR response (OR10a): 0.023
